The values that follow come from US10189836B2, “Therapeutic compounds, compositions and methods of use thereof” (Genentech, Inc., priority 2015, dated 2019).

The IC50 is the concentration at which inhibition is half-maximal. The low end stands for higher potency, the high end for lower potency.

This test deals with JAK1-dependent STAT6 phosphorylation downstream of IL-13 stimulation in BEAS-2B cells.
For the compound `CN1CCN(C(=O)Cn2cc(Nc3nc4c(N5CC6CCC(C5)N6C(=O)N5CC(F)(F)C5)cccn4n3)cn2)CC1` [Example 173, 2-[4-[[8-[8-(3,3-difluoroazetidine-1-carbonyl)-3,8-diazabicyclo[3.2.1]octan-3-yl]-[1,2,4]triazolo[1,5-a]pyridin-2-yl]amino]pyrazol-1-yl]-1-(4-methylpiperazin-1-yl)ethanone], the IC50 was 27.4 nM.

Take `CN1CCN(C(=O)Cn2cc(Nc3nc4c(N5CC6CCC(C5)N6S(=O)(=O)CCCC(F)(F)F)cccn4n3)cn2)CC1` [Example 174, 1-(4-methylpiperazin-1-yl)-2-[4-[[8-[8-(4,4,4-trifluorobutylsulfonyl)-3,8-diazabicyclo[3.2.1]octan-3-yl]-[1,2,4]triazolo[1,5-a]pyridin-2-yl]amino]pyrazol-1-yl]ethanone]: it took 88.5 nM to reach half-maximal inhibition (IC50). Compared with the last compound, the IC50 is about 3.2-fold higher.

In turn, `CN1CCN(C(=O)Cn2cc(Nc3nc4c(N5CC6CCC(C5)N6S(=O)(=O)c5cccnc5)cccn4n3)cn2)CC1` [Example 175, 1-(4-methylpiperazin-1-yl)-2-[4-[[8-[8-(3-pyridylsulfonyl)-3,8-diazabicyclo[3.2.1]octan-3-yl]-[1,2,4]triazolo[1,5-a]pyridin-2-yl]amino]pyrazol-1-yl]ethanone] gave an IC50 of 39.9 nM.

Compound `CN1CCN(C(=O)Cn2cc(Nc3nc4c(N5CC6CCC(C5)N6S(=O)(=O)CCCC#N)cccn4n3)cn2)CC1` [Example 176, 4-[[3-[2-[[1-[2-(4-methylpiperazin-1-yl)-2-oxo-ethyl]pyrazol-4-yl]amino]-[1,2,4]triazolo[1,5-a]pyridin-8-yl]-3,8-diazabicyclo[3.2.1]octan-8-yl]sulfonyl]butanenitrile] came in with an IC50 of 25.4 nM.

Turning to `CN1CCN(C(=O)Cn2cc(Nc3nc4c(N5CC6CCC(C5)N6S(=O)(=O)C5CC5)cccn4n3)cn2)CC1` [Example 177, 2-[4-[[8-(8-cyclopropylsulfonyl-3,8-diazabicyclo[3.2.1]octan-3-yl)-[1,2,4]triazolo[1,5-a]pyridin-2-yl]amino]pyrazol-1-yl]-1-(4-methylpiperazin-1-yl)ethanone], half-maximal inhibition (IC50) required 309 nM.

Turning to `CN1CCN(C(=O)Cn2cc(Nc3nc4c(N5CC6CCC(C5)N6S(=O)(=O)C5CCCCC5)cccn4n3)cn2)CC1` [Example 178, 2-[4-[[8-(8-cyclohexylsulfonyl-3,8-diazabicyclo[3.2.1]octan-3-yl)-[1,2,4]triazolo[1,5-a]pyridin-2-yl]amino]pyrazol-1-yl]-1-(4-methylpiperazin-1-yl)ethanone; formic acid], the midpoint of inhibition, the IC50, lay at 67.9 nM.

`O=C(Cn1cc(Nc2nc3c(N4CC5CCC(C4)N5C(=O)CCC(F)(F)F)cccn3n2)cn1)N1CCC(N2CCn3nccc3C2)CC1` [Example 179, 1-[3-[2-[[1-[2-[4-(6,7-dihydro-4H-pyrazolo[1,5-a]pyrazin-5-yl)-1-piperidyl]-2-oxo-ethyl]pyrazol-4-yl]amino]-[1,2,4]triazolo[1,5-a]pyridin-8-yl]-3,8-diazabicyclo[3.2.1]octan-8-yl]-4,4,4-trifluoro-butan-1-one; formic acid] gave an IC50 of 67.2 nM.

`CSC1CCN(C(=O)N2C3CCC2CN(c2cccn4nc(Nc5cnn(CC(=O)N6CCN(C)CC6)c5)nc24)C3)CC1` [Example 180, 1-(4-methylpiperazin-1-yl)-2-[4-[[8-[8-(4-methylsulfanylpiperidine-1-carbonyl)-3,8-diazabicyclo[3.2.1]octan-3-yl]-[1,2,4]triazolo[1,5-a]pyridin-2-yl]amino]pyrazol-1-yl]ethanone] had a concentration for half-maximal inhibition (IC50) of 95.9 nM.

`CN1CCN(C(=O)Cn2cc(Nc3nc4c(N5CC6CCC(C5)N6C(=O)N5CCC(C(F)(F)F)C5)cccn4n3)cn2)CC1` (centres unmarked) [Example 181, 1-(4-methylpiperazin-1-yl)-2-[4-[[8-[8-(3-(trifluoromethyl)pyrrolidine-1-carbonyl]-3,8-diazabicyclo[3.2.1]octan-3-yl]-[1,2,4]triazolo[1,5-a]pyridin-2-yl]amino]pyrazol-1-yl]ethanone] showed an IC50 of 36.3 nM.

With `CN1CCN(C(=O)Cn2cc(Nc3nc4c(N5CC6CCC(C5)N6C(=O)N5CCC(C#N)CC5)cccn4n3)cn2)CC1` [Example 182, 1-[3-[2-[[1-[2-(4-methylpiperazin-1-yl)-2-oxo-ethyl]pyrazol-4-yl]amino]-[1,2,4]triazolo[1,5-a]pyridin-8-yl]-3,8-diazabicyclo[3.2.1]octane-8-carbonyl]piperidine-4-carbonitrile], inhibition was half-maximal at 17 nM (IC50). Against the preceding compound, the IC50 is about 2.1-fold lower.

`CN1CCN(C(=O)Cn2cc(Nc3nc4c(N5CC6CCC(C5)N6S(=O)(=O)Cc5ccc(C(F)(F)F)cc5)cccn4n3)cn2)CC1` [Example 184, 1-(4-methylpiperazin-1-yl)-2-[4-[[8-[8-([4-(trifluoromethyl)phenyl]methylsulfonyl]-3,8-diazabicyclo[3.2.1]octan-3-yl]-[1,2,4]triazolo[1,5-a]pyridin-2-yl]amino]pyrazol-1-yl]ethanone] had an IC50 of 77.5 nM.

`CN1CCN(C(=O)Cn2cc(Nc3nc4c(N5CC6CCC(C5)N6C(=O)c5ccc(C#N)cc5)cccn4n3)cn2)CC1` [Example 185] yielded an IC50 of 25.2 nM.

With `CSCCN1CCN(C(=O)Cn2cc(Nc3nc4c(N5CC6CCC(C5)N6C(=O)N5CC(C(F)(F)F)C5)cccn4n3)cn2)CC1` [Example 186, 1-[4-(2-methylsulfanylethyl)piperazin-1-yl]-2-[4-[[8-[8-(3-(trifluoromethyl)azetidine-1-carbonyl]-3,8-diazabicyclo[3.2.1]octan-3-yl]-[1,2,4]triazolo[1,5-a]pyridin-2-yl]amino]pyrazol-1-yl]ethanone; formic acid], the IC50 is 13.6 nM.

`CN1CCN(C(=O)Cn2cc(Nc3nc4c(N5C[C@H]6CC[C@@H](C5)[C@H]6OCc5cccc(C(=O)N(C)C)c5)cccn4n3)cn2)CC1` [Example 187, N,N-dimethyl-3-[[rac-(1S,5R)-3-[2-[[1-[2-(4-methylpiperazin-1-yl)-2-oxo-ethyl]pyrazol-4-yl]amino]-[1,2,4]triazolo[1,5-a]pyridin-8-yl]-3-azabicyclo[3.2.1]octan-8-yl]oxymethyl]benzamide]: the midpoint of inhibition, the IC50, lay at 36.3 nM. This IC50 is about 2.7-fold higher than that of the compound before.

In turn, `CN1CCN(C(=O)Cn2cc(Nc3nc4c(N5CC6CCC(C5)N6C(=O)N5CCC(F)(F)CC5)cccn4n3)cn2)CC1` [Example 188, 2-[4-[[8-[8-(4,4-difluoropiperidine-1-carbonyl)-3,8-diazabicyclo[3.2.1]octan-3-yl]-[1,2,4]triazolo[1,5-a]pyridin-2-yl]amino]pyrazol-1-yl]-1-(4-methylpiperazin-1-yl)ethanone] yielded an IC50 of 16.8 nM.

`CN1CCN(C(=O)Cn2cc(Nc3nc4c(N5C[C@H]6CC[C@@H](C5)[C@@H]6OCc5ccncc5)cccn4n3)cn2)CC1` [Example 189, 1-(4-methylpiperazin-1-yl)-2-(4-((8-((1R,5 S,8s)-8-(pyridin-4-ylmethoxy)-3-azabicyclo[3.2.1]octan-3-yl)-[1,2,4]triazolo[1,5-a]pyridin-2-yl)amino)-1H-pyrazol-1-yl)ethanone] returned an IC50 of 85.8 nM. Against the preceding compound, the IC50 is about 5.1-fold higher.

`N#CC1(CNC2CCN(C(=O)Cn3cc(Nc4nc5c(N6CC7CCC(C6)N7C(=O)C6CC(C(F)(F)F)C6)cccn5n4)cn3)CC2)CC1` (centres unmarked) [Example 190, 1-[[[1-[2-[4-[[8-[8-[3-(trifluoromethyl)cyclo-butanecarbonyl]-3,8-diazabicyclo[3.2.1]octan-3-yl]-[1,2,4]triazolo[1,5-a]pyridin-2-yl]amino]pyrazol-1-yl]acetyl]-4-piperidyl]amino]methyl]-cyclopropanecarbonitrile] yielded an IC50 of 120 nM.

Consider `N#CC1(CNC2CCN(C(=O)Cn3cc(Nc4nc5c(N6CC7CCC(C6)N7C(=O)C6CC(C(F)(F)F)C6)cccn5n4)cn3)CC2)CC1` (centres unmarked) [Example 191, 1-[[[1-[2-[4-[[8-[8-[3-(trifluoromethyl)cyclo-butanecarbonyl]-3,8-diazabicyclo[3.2.1]octan-3-yl]-[1,2,4]triazolo[1,5-a]pyridin-2-yl]amino]pyrazol-1-yl]acetyl]-4-piperidyl]amino]methyl]-cyclopropanecarbonitrile], for which the IC50 was 236 nM. Against the preceding compound, the IC50 is about 2-fold higher.

As for `CN(CC1(C#N)CC1)C1CCN(C(=O)Cn2cc(Nc3nc4c(N5CC6CCC(C5)N6C(=O)C5CC(C(F)(F)F)C5)cccn4n3)cn2)CC1` (centres unmarked) [Example 192, 1-[[methyl-[1-[2-[4-[[8-[8-[3-(trifluoromethyl)cyclo-butanecarbonyl]-3,8-diazabicyclo[3.2.1]octan-3-yl]-[1,2,4]triazolo[1,5-a]alpyridin-2-yl]amino]pyrazol-1-yl]acetyl]-4-piperidyl]amino]methyl]-cyclopropanecarbonitrile], the IC50 was 118 nM.

With `CN(CC1(C#N)CC1)C1CCN(C(=O)Cn2cc(Nc3nc4c(N5CC6CCC(C5)N6C(=O)C5CC(C(F)(F)F)C5)cccn4n3)cn2)CC1` (centres unmarked) [Example 193, 1-[[methyl-[1-[2-[4-[[8-[8-[3-(trifluoromethyl)cyclobutanecarbonyl]-3,8-diazabicyclo[3.2.1]octan-3-yl]-[1,2,4]triazolo[1,5-a]pyridin-2-yl]amino]pyrazol-1-yl]acetyl]-4-piperidyl]amino]methyl]-cyclopropanecarbonitrile], the IC50 came out at 46.7 nM.

In the case of `O=C(Cn1cc(Nc2nc3c(N4CC5CCC(C4)N5C(=O)N4CC(C(F)(F)F)C4)cccn3n2)cn1)N1CCN(C2COC2)CC1` [Example 194, 1-[4-(oxetan-3-yl)piperazin-1-yl]-2-[4-[[8-[8-[3-(trifluoromethyl)azetidine-1-carbonyl]-3,8-diazabicyclo[3.2.1]octan-3-yl]-[1,2,4]triazolo[1,5-a]pyridin-2-yl]amino]pyrazol-1-yl]ethanone], half-maximal inhibition (IC50) required 123 nM. This IC50 is about 2.6-fold higher than that of the compound before.

In the case of `CN1CCN(C(=O)Cn2cc(Nc3nc4c(N5C[C@H]6CC[C@@H](C5)[C@H]6OCc5cccc(CO)c5)cccn4n3)cn2)CC1` [Example 195, 1-(4-methylpiperazin-1-yl)-2-[4-[[8-[rac-(1S,5R)-8-[[3-(hydroxymethyl)phenyl]methoxy]-3-azabicyclo[3.2.1]octan-3-yl]-[1,2,4]triazolo[1,5-a]pyridin-2-yl]amino]pyrazol-1-yl]ethanone], the IC50 came to 36.6 nM.

For `CN1CCN(C(=O)Cn2cc(Nc3nc4c(N5CC6CCC(C5)N6C(=O)c5cnc(CC(F)(F)F)s5)cccn4n3)cn2)CC1` [Example 196], the half-inhibitory concentration (IC50) is 51.7 nM. The IC50 values of the last two compounds are within 1.5-fold of each other.
